Protein sequences, listed by entry. Tags and fused reporters are not part of them.
UniProt P50406, whole entry: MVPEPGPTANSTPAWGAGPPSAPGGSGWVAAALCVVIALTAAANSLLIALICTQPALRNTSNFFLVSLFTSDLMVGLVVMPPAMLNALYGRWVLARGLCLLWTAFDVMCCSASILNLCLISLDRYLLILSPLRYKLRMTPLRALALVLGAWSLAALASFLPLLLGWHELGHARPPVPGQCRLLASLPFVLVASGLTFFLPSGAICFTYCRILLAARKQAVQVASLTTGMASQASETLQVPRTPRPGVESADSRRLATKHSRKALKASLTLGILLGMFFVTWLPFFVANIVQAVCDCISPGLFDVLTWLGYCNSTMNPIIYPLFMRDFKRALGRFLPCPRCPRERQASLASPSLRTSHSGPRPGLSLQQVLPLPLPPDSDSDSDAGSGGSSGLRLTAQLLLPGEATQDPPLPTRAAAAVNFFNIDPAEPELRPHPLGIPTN

According to ChEMBL document CHEMBL1149666, “Novel 1-(azacyclyl)-3-arylsulfonyl-1H-pyrrolo[2,3-b]pyridines as 5-HT6 agonists and antagonists” (Bioorg Med Chem, 2007):

Molecular target: 5-hydroxytryptamine receptor 6 (Homo sapiens, UniProt P50406)
Assay: Agonist activity at human 5HT6 expressed in HeLa cells assessed as intracellular cAMP level by radioimmunoassay
Type: functional, cell-based

Q: With `CCN1CCCC(n2cc(S(=O)(=O)c3cccc(F)c3)c3cccnc32)C1` (configuration not stated) as the molecule, how does the EC50 read?
A: Its EC50 is 60 nM.

Q: `CN1CCC(n2cc(S(=O)(=O)c3cccc(F)c3)c3cccnc32)C1` (configuration not stated) was tested. Which EC50 did it give?
A: Its EC50 is 231 nM.
